Earlier results in PMC3088502 (Bioorganic & medicinal chemistry, 2011).

Tested on: pancreatic cancer cells xenograft
Conditions: immunocompromised mice; ref [26],[27]; cited from earlier work

Question: With CCCCCCCCCCCCc1ccc(S(=O)(=O)Nc2nncs2)cc1 [Compound 29, 4-Dodecyl-N-(1,3,4-thiadiazol-2-yl)benzenesulfonamide] as the compound, how does the Antitumor activity read?
Answer: Its Antitumor activity is “good antitumor activity”.
